From US9428492B2, “Secondary alcohol substituted triazoles as PDE10 inhibitors” (Merck Sharp & Dohme Corp., priority 2012, dated 2016) come the findings set out here.

Amino acid sequences for entries named in this document (tags omitted). Residues count along the entry.
UniProt Q9Y233, 267-1055: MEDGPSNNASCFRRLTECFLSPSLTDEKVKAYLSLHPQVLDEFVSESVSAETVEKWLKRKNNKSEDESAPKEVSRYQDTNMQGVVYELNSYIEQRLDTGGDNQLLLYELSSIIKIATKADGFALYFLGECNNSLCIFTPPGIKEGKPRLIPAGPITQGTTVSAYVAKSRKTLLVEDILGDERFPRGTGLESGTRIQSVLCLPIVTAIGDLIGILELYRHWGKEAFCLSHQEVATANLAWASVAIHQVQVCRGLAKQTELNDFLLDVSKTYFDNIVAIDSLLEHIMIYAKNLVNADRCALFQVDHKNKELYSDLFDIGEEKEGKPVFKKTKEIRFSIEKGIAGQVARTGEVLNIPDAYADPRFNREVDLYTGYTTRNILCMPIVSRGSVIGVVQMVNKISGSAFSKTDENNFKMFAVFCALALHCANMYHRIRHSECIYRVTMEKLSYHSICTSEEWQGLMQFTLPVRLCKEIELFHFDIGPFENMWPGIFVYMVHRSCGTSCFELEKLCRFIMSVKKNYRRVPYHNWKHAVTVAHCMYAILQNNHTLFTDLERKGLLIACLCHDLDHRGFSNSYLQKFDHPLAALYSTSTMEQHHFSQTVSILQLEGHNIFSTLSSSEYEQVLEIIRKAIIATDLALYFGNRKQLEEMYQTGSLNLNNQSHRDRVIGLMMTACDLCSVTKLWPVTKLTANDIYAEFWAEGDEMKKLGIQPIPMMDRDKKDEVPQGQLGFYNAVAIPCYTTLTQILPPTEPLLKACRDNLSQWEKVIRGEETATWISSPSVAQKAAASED

SMILES strings stand for the structures.

Broadly, the Ki is the dissociation constant of the complex between target and ligand, obtained from inhibition or displacement.

This experiment concerns the target human PDE10A2 (Homo sapiens (Human), UniProt Q9Y233). The experiment can be described thus: PDE10 fluorescence polarization (IMAP FP) inhibition assay. The following applies: read-out: PDE10a Ki. The experiment is classed as biochemical. The protocol: The activity of the compounds in accordance with the present invention as PDE10 inhibitors may be readily determined without undue experimentation using a fluorescence polarization (FP) methodology that is well known in the art (Huang, W., et al., J. Biomol Screen, 2002, 7: 215).
In a typical experiment the PDE10 inhibitory activity of the compounds of the present invention was determined in accordance with the following experimental method. PDE10A2 was amplified from human fetal brain cDNA (Clontech, Mountain View, Calif.) using a forward primer corresponding to nucleotides 56-77 of human PDE10A2 (Accession No. AF127480, Genbank Identifier 4894716), containing a Kozak consensus sequence, and a reverse primer corresponding to nucleotides 2406-2413 of human PDE10A2 (Accession No. AF127480, Genbank Identifier 4894716). Amplification with Easy-A polymerase (Stratagene, La Jolla, Calif.) was 95° C. for 2 minutes followed by thirty three cycles of 95° C. for 40 seconds, 55° C. for 30 seconds, and 72° C. for 2 minutes 48 seconds. Final extension was 72° C. for 7 minutes. […] The fluorescence polarization assay for cyclic nucleotide phosphodiesterases was performed using an IMAP® FP kit supplied by Molecular Devices, Sunnyvale, Calif. […] 0% of inhibition is determined by using DMSO (1% final concentrations). […]
(Fluorescence polarisation rises when a labelled molecule tumbles more slowly, as on binding a larger partner.)

For `CCC(O)c1nc(C)nn1-c1cc(C2C[C@H]2c2nc3ccccc3n2C)nc(C)n1` (stereo partly drawn) [Example 19, 1-(3-methyl-1-(2-methyl-6-((1R,2R)-2-(1-methyl-1H-benzo[d]imidazol-2-yl)cyclopropyl)pyrimidin-4-yl)-1H-1,2,4-triazol-5-yl)propan-1-ol], the Ki turned out to be 1.3 nM.
